DT40 TDP1 no CPT: qHTS for Inhibitors of human tyrosyl-DNA phosphodiesterase 1 (TDP1): qHTS in cells in absence of CPT; DT40 Tdp1-/- hTDP1 cells, no CPT, ATP luminescence, 48 h; Potency, µM (series often up to 46.2 µM), most hits filed as inhibitors; 15% of 420,000 active; AID 686978, 2013; note: nearly all actives have a fitted effect of over 55% in size
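Seeded 400 DT40-hTDP1 cells/well (vehicle DMSO, no 20 nM CPT); pinned compounds; ≥48 hr at 37 °C; CellTiter-Glo luminescence as viability measure.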
uPA generation: blocks generation of uPA at the cell surface; cell surface uPA generation assay, qHTS; Potency, µM (doses to about 38.3 µM), hits mostly inhibitors; 0.31% of 330,000 active; active = well fitted inhibition curve with a large enough effect; inconclusive = small, poorly fitted or top-dose-only effect; inactive = no such curve, though single readings can be large or run the other way; tested in mouse RAW 264.7 cells; note: nearly all actives have a fitted effect of over 55% in size
TDP1 block: blocks human tyrosyl-DNA phosphodiesterase 1; 0.28% of 350,000 active; Potency, µM (titrated, usually from 130 µM), usual class: inhibitors; recombinant TDP1, AlphaScreen DNA substrate cleavage; AID 485290; note: nearly all actives have a fitted effect of over 40% in size
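Recombinant human Tdp1 (E. coli-expressed, 1 nM final) preincubated with compounds 15 min at room temperature, then 5'-biotin/3'-phosphotyrosine-FITC DNA substrate (15 nM final) added for 5 min. AlphaScreen beads (10 ug/ml final) added 10 min; cleavage lowers signal.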
TDP1 cell CPT: growth inhibition of DT40 Tdp1-/-;hTDP1 cells with camptothecin (screen for TDP1 inhibitors). chicken DT40 Tdp1-/-;hTDP1 cells + 20 nM CPT, ATP luminescence, 48 h. Potency, µM (titrated, usually from 46.2 µM), most hits filed as inhibitors. 12% of 420,000 active. AID 686979; note: nearly all actives have a fitted effect of over 55% in size
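Chicken DT40 Tdp1-/- cells stably complemented with human TDP1 were seeded at 400 cells/well in medium containing 20 nM camptothecin, exposed to pin-transferred compounds, and grown at 37 °C for at least 48 hr. Viability was read as ATP luminescence.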
miR-21 reporter: miR-21 reporter, rising signal; HeLa miR-21 FLuc reporter, luciferase, 48 h; Potency, µM (titrated, usually from 38.3 µM); 340,000 tested, under 10 active; AID 2288; active = well fitted rising curve with a large enough effect; inconclusive = small, poorly fitted or top-dose-only effect; inactive = no such curve, though single readings can be large or run the other way;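 also: miR-21 action dims this reporter so a rising signal means less miR-21 action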
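Using DMEM plus 10% FBS, HeLa miR-21-FLuc cells are incubated with test compounds (final up to about 40uM) for 48 hours; firefly luciferase signal is then imaged following reagent-mediated lysis.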
Hits are given with their value; i = inactive; ? = inconclusive; nt = not tested or not shown. Most compounds without a hit are left out; they make up all but 16% or so of the library. Unless noted, calls come from the whole dose curve; as a rule, active = well fitted curve in the direction sought with a large enough effect; inconclusive = small, poorly fitted or top-dose-only effect, or another doubt; inactive = no such curve, though single readings can be large; an effect the other way counts as inactive or inconclusive.

SMILES	DT40 TDP1 no CPT	uPA generation	TDP1 block	TDP1 cell CPT	miR-21 reporter
CCS(=O)(=O)c1ccc(N=Nc2ccc(O)c3ncccc23)c(OC)c1	1.3µM	i	i	1.84µM	?
COc1ccccc1N=Nc1[nH]c2ccc(C)cc2c1O	?	i	i	i	i
COc1ccccc1N=Nc1ccc(O)c2ncccc12	2.91µM	?	nt	2.91µM	i
Oc1ccc(N=Nc2ccccc2C(F)(F)F)c2cccnc12	1.03µM	?	nt	0.82µM	?
Nc1cnc(-c2ccccc2)nc1Cl	i	i	i	i	i
COc1ccccc1-c1nnc(C2CCN(S(=O)(=O)c3ccccc3)CC2)o1	14.6µM	nt	i	?	i
COc1ccccc1-c1nnc(C2CCN(S(=O)(=O)c3ccc([N+](=O)[O-])cc3)CC2)o1	?	i	i	?	i
COc1ccccc1-c1nnc(C2CCN(S(=O)(=O)c3cccc([N+](=O)[O-])c3)CC2)o1	20.6µM	i	i	?	i
Fc1ccc(CNc2ccc(N3CCN(Cc4ccccc4)CC3)cc2)cc1	?	i	i	?	i
Clc1cccc(Cl)c1CNc1ccc(N2CCCC2)cc1	16.4µM	i	i	6.51µM	i
COc1ccc(C(=O)Nc2nc(-c3ccc([N+](=O)[O-])cc3)c(-c3ccc(OC)cc3)s2)cc1	10.3µM	i	i	?	i
COc1ccc2c(c1)Cc1sc(NC(=O)c3ccc(Cl)cc3)nc1-2	13µM	nt	i	20.6µM	i
COc1ccc2c(c1)Cc1sc(NC(=O)c3cccc(C)c3)nc1-2	?	nt	i	?	i
COc1ccc2c(c1)-c1nc(NC(=O)c3ccc(OC)c(Br)c3)sc1CC2	8.2µM	nt	i	?	i
COc1ccc2c(c1)-c1nc(NC(=O)c3ccc(C)cc3)sc1CC2	?	nt	i	?	i
COc1ccc(C(=O)Nc2nc3c(s2)CCc2cc(OC)ccc2-3)cc1	25.9µM	nt	i	23.1µM	?
N=c1n(CCN2CCCCC2)c2ccccc2n1CC(O)c1ccco1 (stereo unspecified)	i	i	i	i	i
CCCC(=O)N1CCC1(C)C(=O)Nc1ccccc1C(C)(C)C (stereo unspecified)	i	nt	nt	i	nt
Oc1ccc(CCc2ccccc2F)c2cccnc12	nt	nt	i	nt	nt
CC(C)COCc1ccc(O)c2ncccc12	0.651µM	i	i	0.92µM	?
CCCOCc1ccc(O)c2ncccc12	0.581µM	i	nt	0.82µM	i
Oc1ccc(N=Nc2cccc(C(F)(F)F)c2)cc1C=Nc1ccc(N2CCOCC2)cc1	18.4µM	i	i	23.1µM	i
O=c1[nH][nH]c(=O)c2cc([N+](=O)[O-])ccc12	?	i	i	i	nt
CCCCCNC(=O)c1ccc2c(c1)ncn2-c1cccc(C)c1	?	nt	i	?	i
O=C(NCCC1=CCCCC1)c1ccc2c(c1)ncn2-c1cccc(Cl)c1	14.6µM	nt	i	16.4µM	i
SMILES	DT40 TDP1 no CPT	uPA generation	TDP1 block	TDP1 cell CPT	miR-21 reporter
COc1ccc(-n2cnc3cc(C(=O)NCCC4=CCCCC4)ccc32)cc1	?	nt	i	18.4µM	i
CC(=O)c1cc2c(cc1N/C(=N/S(=O)(=O)c1ccc(C)cc1)c1ccc(F)cc1)OCO2	i	nt	i	i	i
c1ccc(CNc2ncnc3c2ncn3Cc2ccccc2)cc1	?	nt	i	?	nt
C1=Nc2c(NCc3ccccc3)ncnc2Oc2ccccc21	1.03µM	i	i	3.66µM	i
c1ccc(-n2nnnc2SCCCSc2nc3ccccc3s2)cc1	i	i	i	i	i
Cc1c(NC(=O)c2cccs2)c(=O)n(-c2ccccc2)n1C	i	i	i	i	i
Cc1ccc(NC(=O)COc2coc(CN3CCc4ccccc43)cc2=O)c(C)c1	14.6µM	i	i	?	nt
Cc1ccc(C)c(NC(=O)COc2coc(CN3CCc4ccccc4C3)cc2=O)c1	16.4µM	i	i	18.4µM	nt
Cc1ccc(NC(=O)COc2coc(CN3CCc4ccccc4C3)cc2=O)c(C)c1	?	i	i	?	nt
O=C(COc1coc(CN2CCCc3ccccc32)cc1=O)Nc1ccccc1	5.8µM	i	i	?	nt
CC1CCN(C(=O)COc2coc(CN3CCc4ccccc43)cc2=O)CC1	i	i	nt	i	nt
Cc1ccc(NC(=O)COc2coc(CN3c4ccccc4CC3C)cc2=O)c(C)c1 (stereo unspecified)	13µM	i	i	?	nt
Cc1cc(C)cc(NC(=O)COc2coc(CN3CCc4ccccc43)cc2=O)c1	?	i	i	?	nt
CCOc1cc(N2CCOCC2)c(OCC)cc1NC(=O)c1ccc(S(=O)(=O)N2CC(C)OC(C)C2)cc1 (stereo unspecified)	?	i	nt	?	nt
Nc1nnnn1/N=C/c1ccccn1	i	nt	i	i	i
Cc1ccc(C(=O)C2=C(O)C(=O)N(Cc3cccnc3)C2c2ccc(N(C)C)cc2)o1 (stereo unspecified)	i	i	nt	i	i
COc1ccc(OC)c(NC(=O)COc2coc(CN3CCCc4ccccc43)cc2=O)c1	?	i	i	?	nt
COc1ccc(CCNC(=O)COc2coc(CN3c4ccccc4CC3C)cc2=O)cc1OC (stereo unspecified)	16.4µM	i	i	?	nt
COc1ccc(OC)c(NC(=O)COc2coc(CN3CCc4ccccc43)cc2=O)c1	16.4µM	i	i	?	nt
Fc1ccc2cnc(-c3ccccc3F)cc2c1	i	i	i	i	nt
CC(CC(c1ccccc1)N1CCc2ccccc2C1)=NO (stereo unspecified)	18.4µM	nt	nt	?	nt
COc1ccc(NC(=S)N2CCCC(c3nc4ccc(C)cc4[nH]3)C2)cc1 (stereo unspecified)	i	i	i	i	i
CC(=O)N1CCN(C(=O)CC2OC(=O)c3ccccc32)CC1 (stereo unspecified)	11.6µM	i	i	8.2µM	i
O=C(CNCCN1CCOCC1)Nc1ccccc1Sc1ccccc1	i	i	i	i	i
CCCC(=O)Oc1ccccc1C1SCc2cc(C)c(C)cc2CS1	25.9µM	i	i	18.4µM	i
SMILES	DT40 TDP1 no CPT	uPA generation	TDP1 block	TDP1 cell CPT	miR-21 reporter
CCOC(=O)C(C(=O)OCC)C1OC(=O)c2cc3c(cc21)C(=O)OC3C(C(=O)OCC)C(=O)OCC (stereo unspecified)	i	i	i	?	i
CCCc1c(C(=O)N/N=C/C=C/c2ccccc2)nnn1-c1nonc1N	i	nt	nt	i	nt
CC1(C(=O)Nc2cccc(Br)c2)Cc2ccccc2C(=O)O1 (stereo unspecified)	i	nt	i	i	i
CC1CCC(NC(=O)CC2Oc3ccccc3NC2=O)CC1 (stereo unspecified)	i	i	i	i	i
O=C(Nc1ccccc1[N+](=O)[O-])C1(c2ccccc2)CCOCC1	16.4µM	i	i	?	i
CC(=O)c1ccc(NC(=O)C2(c3ccccc3)CCOCC2)cc1	i	i	nt	i	i
O=C(c1ccccc1)C1OC1C(=O)c1ccccc1 (stereo unspecified)	6.51µM	i	nt	4.11µM	nt

From PubChem BioAssay
